Measured values taken from US7223550B2, “Biosensor for defecting chemical agents” (dated 2007).

Amino acid sequences for entries named in this document (tags omitted). A change or cut given only in a name is not applied to a line headed by its entry.
UniProt P23270: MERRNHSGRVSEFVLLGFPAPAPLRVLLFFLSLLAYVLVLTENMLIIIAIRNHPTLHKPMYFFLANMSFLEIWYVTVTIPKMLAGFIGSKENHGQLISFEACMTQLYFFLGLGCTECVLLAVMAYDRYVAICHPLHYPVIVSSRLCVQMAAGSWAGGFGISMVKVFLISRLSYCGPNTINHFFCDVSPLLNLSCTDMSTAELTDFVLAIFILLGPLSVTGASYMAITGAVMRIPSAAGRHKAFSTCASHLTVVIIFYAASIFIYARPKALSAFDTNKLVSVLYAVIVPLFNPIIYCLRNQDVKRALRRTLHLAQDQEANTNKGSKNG

Key:
[1] = target: T1, rat RI7 olfactory receptor (Rattus norvegicus, UniProt P23270); assay: GFP expression in WIF-1α-RI7 cells exposed to olfactants, laser confocal microscopy; conditions: for GFP expression in WIF-1α-RI7 cells in the presence of the olfactant: 100 nmoles olfactant, 3 hrs. post-exposure, laser confocal microscopy, FIGS. 6A-6D; for Detection of the olfactant by the WIF-1α-RI7 cells: conclusion drawn from GFP expression at 100 nmoles, 3 hrs.
[2] = target: T1, rat RI7 olfactory receptor; assay: GFP fluorescence response of yeast biosensor WIF-1α-RI7 to olfactants (plate reader); conditions: single concentration 25 nM for 3 hours; excitation 485 nm, emission 535 nm; FIG. 4B

| Compound | GFP expression in WIF-1α-RI7 cells in the presence of the olfactant [1] | Detection of the olfactant by the WIF-1α-RI7 cells [1] | Specificity of WIF-1α-RI7: ratio of WIF-1α-RI7 GFP fluorescence values over WIF-1α (control) GFP fluorescence values [2] |
| --- | --- | --- | --- |
| CCCCCC=O | essentially equal to background | no detection | – |
| CCCCCCC=O | increased GFP expression in cells exposed to heptaldehyde with respect to the control and hexaldehyde-exposed cells | some detection | – |
| CCCCCCCC=O | increase in GFP expression in cells exposed to octaldehyde with respect to heptaldehyde-exposed cells | specifically detect | greater specificity |
